Assay results as given in patent US20240327383A1 (priority 2021, published 2024).

Protein sequences, listed by entry. Tags and fused reporters are not part of them. Lines headed by an entry give the natural chain unless they say otherwise; changes in a name come on top.
UniProt P35372, whole entry, looked up: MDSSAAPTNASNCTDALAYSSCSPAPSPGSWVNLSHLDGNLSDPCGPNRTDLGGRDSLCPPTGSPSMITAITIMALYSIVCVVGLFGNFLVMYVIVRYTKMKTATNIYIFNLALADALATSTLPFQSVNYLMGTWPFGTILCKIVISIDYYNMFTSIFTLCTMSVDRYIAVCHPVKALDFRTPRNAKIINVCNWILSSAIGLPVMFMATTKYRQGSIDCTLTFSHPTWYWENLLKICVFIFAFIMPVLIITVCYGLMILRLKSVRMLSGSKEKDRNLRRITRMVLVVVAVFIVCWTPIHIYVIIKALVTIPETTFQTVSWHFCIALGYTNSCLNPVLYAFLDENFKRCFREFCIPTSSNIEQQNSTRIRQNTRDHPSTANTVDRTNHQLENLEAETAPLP
UniProt P41146: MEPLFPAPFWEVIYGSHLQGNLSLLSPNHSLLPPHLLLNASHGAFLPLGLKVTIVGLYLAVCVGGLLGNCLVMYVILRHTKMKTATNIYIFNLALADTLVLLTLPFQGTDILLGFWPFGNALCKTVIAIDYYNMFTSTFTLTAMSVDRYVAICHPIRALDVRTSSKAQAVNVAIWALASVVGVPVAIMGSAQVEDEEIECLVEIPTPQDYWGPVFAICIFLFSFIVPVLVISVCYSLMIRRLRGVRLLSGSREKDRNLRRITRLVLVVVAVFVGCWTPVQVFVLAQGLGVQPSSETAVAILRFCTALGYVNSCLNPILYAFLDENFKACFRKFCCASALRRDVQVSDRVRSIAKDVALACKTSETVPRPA
UniProt P41145: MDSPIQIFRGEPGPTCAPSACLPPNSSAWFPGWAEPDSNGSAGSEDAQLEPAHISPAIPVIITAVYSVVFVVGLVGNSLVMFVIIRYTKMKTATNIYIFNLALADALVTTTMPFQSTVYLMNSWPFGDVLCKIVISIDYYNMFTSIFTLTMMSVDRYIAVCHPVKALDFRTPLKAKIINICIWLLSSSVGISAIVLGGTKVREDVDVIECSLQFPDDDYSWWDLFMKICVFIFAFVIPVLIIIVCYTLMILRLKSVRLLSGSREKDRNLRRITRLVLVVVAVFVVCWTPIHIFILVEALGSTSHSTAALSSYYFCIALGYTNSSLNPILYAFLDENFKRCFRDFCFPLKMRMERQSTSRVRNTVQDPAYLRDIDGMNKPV
UniProt P41143, whole entry, looked up: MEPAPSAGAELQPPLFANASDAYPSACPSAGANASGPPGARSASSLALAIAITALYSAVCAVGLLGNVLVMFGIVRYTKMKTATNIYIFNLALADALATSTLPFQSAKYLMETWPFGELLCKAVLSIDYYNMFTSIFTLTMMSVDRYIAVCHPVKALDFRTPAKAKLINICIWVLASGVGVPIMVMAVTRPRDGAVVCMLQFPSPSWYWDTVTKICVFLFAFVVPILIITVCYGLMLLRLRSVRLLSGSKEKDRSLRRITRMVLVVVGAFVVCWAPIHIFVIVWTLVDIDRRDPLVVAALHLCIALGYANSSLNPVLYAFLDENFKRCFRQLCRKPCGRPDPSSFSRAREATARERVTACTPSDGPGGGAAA

Legend:
hMOP receptor = hMOP receptor (Homo sapiens, UniProt P35372); experiment: Agonistic function cAMP assay, CHO-hMOPr cells; conditions: for EC50: read-out: hMOP receptor EC50
[1] = biological target: hNOP receptor (ORL-1 receptor) (Homo sapiens, UniProt P41146); experiment: Agonistic function cAMP assay, CHO-hNOPr cells; conditions: for EC50: read-out: hNOP receptor (ORL-1 receptor) EC50
hKOP receptor = hKOP receptor (Homo sapiens, UniProt P41145); experiment: Agonistic function cAMP assay, HEK293-hKOPr cells; conditions: for EC50: read-out: hKOP receptor EC50
hDOP receptor = hDOP receptor (Homo sapiens, UniProt P41143); experiment: Agonistic function cAMP assay, HEK293-hDOPr cells; conditions: for EC50: read-out: hDOP receptor EC50
hNOPr = hNOPr (Homo sapiens, UniProt P41146); experiment: Opioid receptor affinity, radioligand binding ([3H]-Nociceptin), HEK293-NOP receptor cell membrane; conditions: read-out: Opioid receptor affinity Ki hNOPr; [3H]-Nociceptin 0.5 nM
hKOPr = hKOPr (Homo sapiens, UniProt P41145); experiment: Opioid receptor affinity, radioligand binding ([3H]-U69593), CHO-K1 KOP receptor cell membrane; conditions: read-out: Opioid receptor affinity Ki hKOPr; [3H]-U69593 1.5 nM
SNI neuropathic pain [2] = experiment: Spared nerve injury (SNI) model, mechanical pain threshold (Von Frey Hairs); type: in vivo, rats
SNI neuropathic pain [3] = experiment: Spared nerve injury (SNI) model, foot weight bearing difference; type: in vivo, rats; conditions: high dose 10 mg/kg s.c.

| SMILES | hMOP receptor Emax(%) (hMOP receptor) | EC50 (hMOP receptor) [nM] | hNOP receptor (ORL-1 receptor) Emax(%) [1] [%] | EC50 [1] [nM] | hKOP receptor Emax(%) (hKOP receptor) | EC50 (hKOP receptor) [nM] | hDOP receptor Emax(%) (hDOP receptor) | EC50 (hDOP receptor) [nM] | Ki (hNOPr) [nM] | Ki (hKOPr) [nM] | inhibition of neuropathic pain (in words) (SNI neuropathic pain [2]; SNI rats, 1, 3, 10 mg/kg s.c.) | mechanical pain threshold (Von Frey Hairs) (SNI neuropathic pain [2]; high dose 10 mg/kg s.c., 1 h after administration) [g] | mechanical pain threshold (Von Frey Hairs) (SNI neuropathic pain [2]; high dose 10 mg/kg s.c., second hour) [g] | mechanical pain threshold (Von Frey Hairs) (SNI neuropathic pain [2]; medium dose 3 mg/kg s.c., 1 h after administration) [g] | balance value of weight bearing difference between the hind feet (SNI neuropathic pain [3]; first hour) [g] | balance value of weight bearing difference between the hind feet (SNI neuropathic pain [3]; second hour) [g] |
| --- | --- | --- | --- | --- | --- | --- | --- | --- | --- | --- | --- | --- | --- | --- | --- | --- |
| CC(C)[C@H]1CC[C@@H](N2CCC(n3c(=O)n(CCN(C)C)c4cc(Cl)c(Cl)cc43)CC2)CC1 | 84.75 | 530 | 89.29 | 213 | – | – | – | – | – | – | – | – | – | – | – | – |
| Cc1ccc(CN2CCC(n3c(=O)n(CCN4CCOCC4)c4cc(Cl)c(Cl)cc43)CC2)c(Cl)c1 | 91.7 | 24.6 | 86.4 | 615 | 110.8 | 67.1 | 118.8 | 1380 | – | – | – | – | – | – | – | – |
| O=c1n(CCN2CCOCC2)c2cc(Cl)c(Cl)cc2n1C1CCN(Cc2ccccc2F)CC1 | 101.50 | 60.6 | 74.28 | 421 | 102.20 | 1.04 | – | – | – | – | – | – | – | – | – | – |
| O=c1n(CCN2CCOCC2)c2cc(Cl)c(Cl)cc2n1C1CCN(Cc2ccc(F)cc2F)CC1 | 114.7 | 94.2 | 71.9 | 1090 | 108.1 | 190 | 125.2 | 2240 | – | – | – | – | – | – | – | – |
| CC(C)C1CCC(N2CCC(N3Cc4cc(Cl)c(Cl)cc4N(CCN4CCOCC4)C3=O)CC2)CC1 (stereo not shown) | – | – | – | – | – | – | – | – | 581 | – | – | – | – | – | – | – |
| O=C1N(CCN2CCOCC2)c2cc(Cl)c(Cl)cc2CN1C1CCN(Cc2ccc(F)cc2Cl)CC1 | – | – | – | – | – | – | – | – | 2190 | 27.1 | – | – | – | – | – | – |
| CC(C)[C@H]1CC[C@@H](N2CCC(n3c(=O)n(CCN4CCOCC4)c4cc(Cl)c(Cl)cc43)CC2)CC1 | 66.77 | 560 | 52.88 | 400 | 80.58 | 633 | 115.1 | 16000 | – | – | – | – | – | – | – | – |
| O=c1n(CCN2CCOCC2)c2cc(Cl)c(Cl)cc2n1C1CCN(Cc2ccc(F)cc2Cl)CC1 | 94.5 | 8.8 | 76.7 | 359 | 92.1 | 37 | 117.0 | 567 | – | – | effectively inhibit neuropathic pain in rats | 9.5 ± 0.2 | 8.3 ± 0.1 | 7.0 ± 0.1 | 46.82 ± 1.68 | 46.54 ± 0.80 |
| O=c1n(CCN2CCOCC2)c2cc(Cl)c(Cl)cc2n1C1CCN(Cc2ccc(Cl)cc2Cl)CC1 | 85.4 | 22.4 | 91.0 | 684 | 97.2 | 157 | 124.1 | 1570 | – | – | – | – | – | – | – | – |
| O=c1n(CCN2CCOCC2)c2cc(Cl)c(Cl)cc2n1C1CCN(Cc2ccc(Cl)cc2F)CC1 | 105.2 | 51.4 | 92.75 | 4030 | 91.0 | 823 | 138.6 | 2620 | – | – | – | – | – | – | – | – |
| CN1CCN(CCn2c(=O)n(C3CCN(Cc4ccc(F)cc4Cl)CC3)c3cc(Cl)c(Cl)cc32)CC1 | 89.1 | 73.2 | 73.2 | 451 | 95.8 | 21.4 | 114.6 | 2740 | – | – | – | – | – | – | – | – |
| Cc1ccccc1CN1CCC(n2c(=O)n(CCN3CCOCC3)c3cc(Cl)c(Cl)cc32)CC1 | 101.70 | 20.2 | 67.22 | 376 | 100.40 | 11.8 | – | – | – | – | – | – | – | – | – | – |
| O=C1NCc2cc(Cl)c(Cl)cc2N1C1CCN(Cc2ccccc2Cl)CC1 | 98.87 | 43.7 | 77.59 | 262 | 91.40 | 85.5 | – | – | – | – | – | – | – | – | – | – |
| O=c1n(CCN2CCS(=O)(=O)CC2)c2cc(Cl)c(Cl)cc2n1C1CCN(Cc2ccc(F)cc2Cl)CC1 | 104.00 | 3.8 | 73.26 | 279 | 74.93 | 79.1 | – | – | – | – | – | – | – | – | – | – |
| CN(C)CCn1c(=O)n(C2CCN(Cc3ccc(F)cc3Cl)CC2)c2cc(Cl)c(Cl)cc21 | 103.10 | 35.5 | 86.99 | 494 | 100.20 | 268 | – | – | – | – | – | – | – | – | – | – |
| CC(C)C1CCC(N2CCC(n3c(=O)n(CCN4CCOCC4)c4cc(Cl)c(Cl)cc43)CC2)CC1 (stereo not shown) | 80.7 | 326 | 33.6 | 436 | 108.4 | 3480 | 71.8 | 3980 | – | – | – | – | – | – | – | – |
| Cc1cc(F)ccc1CN1CCC(n2c(=O)n(CCN3CCOCC3)c3cc(Cl)c(Cl)cc32)CC1 | 91.6 | 59 | 80.2 | 593 | 110.5 | 244 | 119.4 | 2080 | – | – | – | – | – | – | – | – |
| CC(C)[C@H]1CC[C@@H](N2CCC(n3c(=O)n(CCN4CCOCC4)c4cc(F)c(Cl)cc43)CC2)CC1 | 62.12 | 1020 | 82.83 | 617 | – | – | – | – | – | – | – | – | – | – | – | – |
| CC(C)[C@H]1CC[C@@H](N2CCC(n3c(=O)n(CCN4CCOCC4)c4cc(Cl)c(F)cc43)CC2)CC1 | 55.85 | 1160 | 54.76 | 688 | – | – | – | – | – | – | – | – | – | – | – | – |
| O=c1n(CCN2CCCCC2)c2cc(Cl)c(Cl)cc2n1C1CCN(Cc2ccc(F)cc2Cl)CC1 | 97.06 | 86.2 | 81.78 | 999 | 94.00 | 353 | – | – | – | – | – | – | – | – | – | – |
| O=C1N(CCN2CCOCC2)Cc2cc(Cl)c(Cl)cc2N1C1CCN(Cc2ccc(F)cc2Cl)CC1 | – | 51.5 | – | 207 | – | 269 | – | – | – | – | – | – | – | – | – | – |
| O=c1n(CCN2CCOCC2)c2cc(Cl)c(Cl)cc2n1C1CCN(Cc2ccccc2Cl)CC1 | 101.60 | 47.2 | 65.25 | 613 | 121.20 | 28.9 | – | – | – | – | – | – | – | – | – | – |
| CC(C)[C@H]1CC[C@@H](N2CCC(n3c(=O)n(CCN4CCOCC4)c4cc(F)c(F)cc43)CC2)CC1 | 76.14 | 530 | 79.98 | 283 | – | – | – | – | – | – | – | – | – | – | – | – |
